Drawing on paper PMC12125552, this text covers velocity of shHMM-FD on F-actin (TIRF motility assay) with 100 μM free Ca2+, against 40.7 nm/s without Ca2+, stoichiometry N and reduction of immunoblot signal with Ca2+ for one substance.

Experiment [1] addresses DdMyo7 short heavy meromyosin forced-dimer GFP (shHMM-FD-GFP) (Dictyostelium | not stated).
Experiment [2] deals with DdMyo7 long heavy meromyosin (lnHMM), FLAG-tagged (Dictyostelium). Briefly: co-IP; lnHMM (FLAG) precipitated with anti-Flag beads from a MgATP-released, myosin-enriched cytoskeletal fraction of talA null cells; washed in Flag buffer (25 mM Hepes pH 7.4, 300 mM NaCl, 10 mM MgCl2 and 5 mM EGTA, or 2 mM CaCl2); eluted with Flag peptide; gel stained with Coomassie or Sypro Ruby, densitometry normalised to molecular weights; lower band identified by mass spectrometry.

Experiment [3] deals with DdMyo7 short heavy meromyosin forced-dimer GFP (shHMM-FD-GFP) (Dictyostelium | not stated). The experiment is described as follows: co-IP; as a2, but the resin washed in IP wash buffer + 2 mM CaCl2 (+Ca2+); immunoblot signal normalised for gel load and heavy chain abundance. For orientation: A western blot detects proteins with antibodies after separation by electrophoresis.

“Dictyostelium calmodulin CalA (from UniProt P02599 1-152) (natural protein)” returned a velocity of shHMM-FD on F-actin (TIRF motility assay) with 100 μM free Ca2+, against 40.7 nm/s without Ca2+ in experiment [1] of 23.6 nm/s. Further, in experiment [2], the stoichiometry N – broadly, a count of units in the complex or per binding partner – is 2.08 CalA per HC. For the same substance, the reduction of immunoblot signal with Ca2+ in experiment [3] was determined as 99.7%.
